This passage reports Ki results from BindingDB's records for 26145820.

The chains behind the UniProt entries cited, without tags or fusion partners. Residues count along the entry.
UniProt P40881, 35-247 limits assumed: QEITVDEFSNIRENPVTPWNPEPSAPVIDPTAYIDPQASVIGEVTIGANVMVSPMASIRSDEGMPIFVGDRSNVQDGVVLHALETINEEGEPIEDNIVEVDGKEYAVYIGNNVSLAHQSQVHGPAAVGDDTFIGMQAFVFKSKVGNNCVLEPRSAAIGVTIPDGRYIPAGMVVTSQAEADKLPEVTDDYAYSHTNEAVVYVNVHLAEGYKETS

The term Ki denotes a measure of affinity in units of concentration, obtained from inhibition or displacement.

“And” between values parts separate entries of the source, which are not always exact repeats. Equal values may be shown once.

The target of one experiment is Carbonic anhydrase 2 (Homo sapiens, UniProt P00918). Put plainly: Inhibition of human CA2 after 15 mins by stopped-flow/Co2 hydration assay.
For another experiment, the target named is Carbonic anhydrase (Methanosarcina thermophila (strain ATCC 43570 / DSM 1825 / OCM 12 / VKM B-1830 / TM-1), UniProt P40881). Description: Inhibition of archaeon Methanosarcina thermophila gamma-CA after 15 mins by stopped-flow/Co2 hydration assay.

On to `[Na+]`, for which the Ki on Carbonic anhydrase 2 is 26 mM and 63 mM. `[N-]=[N+]=[N-]` came in with a Ki at Carbonic anhydrase of 5.8 mM.
